## Membrane permeability of cyclic peptides

Values of Pye et al. 2017, doi:10.1021/acs.jmedchem.6b01483, as listed in CycPeptMPDB.

PAMPA is the parallel artificial membrane permeability assay, which has no cells and reads passive diffusion. RRCK is a low-efflux MDCK cell line. P is given in units of 10^-6 cm/s (from log10 values with two decimals); larger means faster passage. Entries marked < or ≤ lay at or below the stated limit.

CC(C)C[C@@H]1C(=O)N(C)[C@@H](C)C(=O)N(C)[C@H](C)C(=O)N2CCC[C@@H]2C(=O)N(C)[C@@H](Cc2ccc(O)cc2)C(=O)N(C)[C@H](C)C(=O)N(C)[C@@H](CC(C)C)C(=O)N(C)[C@H](C)C(=O)N1C is reported with PAMPA 1 × 10^-6 cm/s and RRCK 0.38 × 10^-6 cm/s. The entry for CC(C)C[C@@H]1C(=O)N2CCC[C@@H]2C(=O)N(C)[C@@H](Cc2ccc(O)cc2)C(=O)N(C)[C@H](CC(C)C)C(=O)N(C)[C@@H](CC(C)C)C(=O)N(C)[C@H](C)C(=O)N(C)[C@H](C)C(=O)N(C)[C@@H](CC(C)C)C(=O)N1C lists PAMPA 4 × 10^-6 cm/s and RRCK 4.5 × 10^-6 cm/s. CCC[C@@H]1C(=O)N(C)[C@@H](CCC)C(=O)N(C)[C@H](CCC)C(=O)N2CCC[C@@H]2C(=O)N(C)[C@@H](Cc2ccc(O)cc2)C(=O)N(C)[C@H](CC)C(=O)N(C)[C@@H](CCC)C(=O)N(C)[C@H](CCC)C(=O)N1C is reported with PAMPA 4 × 10^-6 cm/s and RRCK 7.2 × 10^-6 cm/s. CCCC[C@@H]1C(=O)N(C)[C@@H](CCCC)C(=O)N(C)[C@H](C)C(=O)N2CCC[C@@H]2C(=O)N(C)[C@@H](Cc2ccc(O)cc2)C(=O)N(C)[C@H](CC)C(=O)N(C)[C@@H](CCCC)C(=O)N(C)[C@H](CC)C(=O)N1C is reported with PAMPA 3.3 × 10^-6 cm/s and RRCK 4 × 10^-6 cm/s.

CC(C)C[C@@H]1C(=O)N(C)[C@@H](CC(C)C)C(=O)N(C)[C@H](CC(C)C)C(=O)N2CCC[C@@H]2C(=O)N(C)[C@@H](Cc2ccc(O)cc2)C(=O)N(C)[C@H](C)C(=O)N(C)[C@@H](C)C(=O)N(C)[C@H](CC(C)C)C(=O)N1C is reported with PAMPA 7.9 × 10^-6 cm/s and RRCK 10 × 10^-6 cm/s. CC(C)C[C@@H]1C(=O)N(C)[C@@H](C)C(=O)N(C)[C@H](CC(C)C)C(=O)N2CCC[C@@H]2C(=O)N(C)[C@@H](Cc2ccc(O)cc2)C(=O)N(C)[C@H](CC(C)C)C(=O)N(C)[C@@H](C)C(=O)N(C)[C@H](CC(C)C)C(=O)N1C has PAMPA 19 × 10^-6 cm/s and RRCK 13 × 10^-6 cm/s. Listed for CC(C)C[C@@H]1C(=O)N(C)[C@@H](CC(C)C)C(=O)N(C)[C@H](CC(C)C)C(=O)N2CCC[C@@H]2C(=O)N(C)[C@@H](Cc2ccc(O)cc2)C(=O)N(C)[C@H](CC(C)C)C(=O)N(C)[C@@H](CC(C)C)C(=O)N(C)[C@H](CC(C)C)C(=O)N1C: PAMPA 0.033 × 10^-6 cm/s and RRCK < 0.1 × 10^-6 cm/s. For CCC[C@H]1C(=O)N(C)[C@H](CC)C(=O)N(C)[C@@H](C)C(=O)N(C)[C@H](CC)C(=O)N(C)[C@H](C)C(=O)N(C)[C@@H](C)C(=O)N(C)[C@H](CC)C(=O)N2CCC[C@@H]2C(=O)N(C)[C@@H](Cc2ccc(O)cc2)C(=O)N1C the data give PAMPA 0.05 × 10^-6 cm/s and RRCK 0.13 × 10^-6 cm/s.

Listed for CC(C)C[C@@H]1C(=O)N(C)[C@@H](C)C(=O)N(C)[C@H](C)C(=O)N2CCC[C@@H]2C(=O)N(C)[C@@H](Cc2ccc(O)cc2)C(=O)N(C)[C@H](CC(C)C)C(=O)N(C)[C@@H](CC(C)C)C(=O)N(C)[C@H](CC(C)C)C(=O)N1C: PAMPA 6 × 10^-6 cm/s and RRCK 7.2 × 10^-6 cm/s. For C[C@@H]1C(=O)N(C)[C@@H](C)C(=O)N(C)[C@H](C)C(=O)N2CCC[C@@H]2C(=O)N(C)[C@@H](Cc2ccc(O)cc2)C(=O)N(C)[C@H](C)C(=O)N(C)[C@@H](C)C(=O)N(C)[C@H](C)C(=O)N1C the data give PAMPA 0.023 × 10^-6 cm/s and RRCK 0.66 × 10^-6 cm/s. CCC[C@H]1C(=O)N(C)[C@H](CC)C(=O)N(C)[C@@H](C)C(=O)N(C)[C@H](CC)C(=O)N(C)[C@H](CC)C(=O)N(C)[C@@H](C)C(=O)N(C)[C@H](CC)C(=O)N2CCC[C@@H]2C(=O)N(C)[C@@H](Cc2ccc(O)cc2)C(=O)N(C)[C@H](C)C(=O)N1C has PAMPA 0.12 × 10^-6 cm/s and RRCK < 0.1 × 10^-6 cm/s. Listed for CCCC[C@@H]1C(=O)N(C)[C@@H](CCCC)C(=O)N(C)[C@H](CCCC)C(=O)N2CCC[C@@H]2C(=O)N(C)[C@@H](Cc2ccc(O)cc2)C(=O)N(C)[C@@H](CCC)C(=O)N(C)[C@H](CC)C(=O)N(C)[C@@H](CCCC)C(=O)N(C)[C@H](CCCC)C(=O)N1C: PAMPA < 0.01 × 10^-6 cm/s and RRCK < 0.1 × 10^-6 cm/s.

For CCCC[C@@H]1C(=O)N(C)[C@@H](CCCC)C(=O)N(C)[C@H](CCCC)C(=O)N2CCC[C@@H]2C(=O)N(C)[C@@H](Cc2ccc(O)cc2)C(=O)N(C)[C@H](CC)C(=O)N(C)[C@@H](CCCC)C(=O)N(C)[C@H](CCCC)C(=O)N1C the data give PAMPA < 0.01 × 10^-6 cm/s and RRCK < 0.1 × 10^-6 cm/s. Listed for CCC[C@@H]1C(=O)N(C)[C@@H](CC)C(=O)N(C)[C@H](CCC)C(=O)N2CCC[C@@H]2C(=O)N(C)[C@@H](Cc2ccc(O)cc2)C(=O)N(C)[C@@H](CCC)C(=O)N(C)[C@H](CC)C(=O)N(C)[C@@H](CCC)C(=O)N(C)[C@H](CCC)C(=O)N1C: PAMPA 4.5 × 10^-6 cm/s and RRCK 3.5 × 10^-6 cm/s.

Excerpt, the opening 2 entries:

For CC(C)C[C@@H]1C(=O)N(C)[C@@H](C)C(=O)N(C)[C@H](C)C(=O)N2CCC[C@@H]2C(=O)N(C)[C@@H](Cc2ccc(O)cc2)C(=O)N(C)[C@H](C)C(=O)N(C)[C@@H](CC(C)C)C(=O)N(C)[C@H](C)C(=O)N1C the data give PAMPA 1 × 10^-6 cm/s and RRCK 0.38 × 10^-6 cm/s.
For CC(C)C[C@@H]1C(=O)N2CCC[C@@H]2C(=O)N(C)[C@@H](Cc2ccc(O)cc2)C(=O)N(C)[C@H](CC(C)C)C(=O)N(C)[C@@H](CC(C)C)C(=O)N(C)[C@H](C)C(=O)N(C)[C@H](C)C(=O)N(C)[C@@H](CC(C)C)C(=O)N1C the data give PAMPA 4 × 10^-6 cm/s and RRCK 4.5 × 10^-6 cm/s.

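Lipid, pH, incubation time, direction and concentration are not recorded in the data file. The list need not hold all peptides of the study. Entries at the database's floor value (log10 P of -10) are not listed.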